# B1: BMP-2: member of the BMP family, R&D Systems (protein, UniProt P12643 283-396, looked up)
# Bone morphogenetic protein 2: QAKHKQRKRLKSSCKRHPLYVDFSDVGWNDWIVAPPGYHAFYCHGECPFPLADHLNSTNHAIVQTLVNSVNSKIPKACCVPTELSAISMLYLDENEKVVLKNYQDMVVEGCGCR
# What was measured:
# [1] = tested on: H1 human embryonic stem cells; experiment: Secondary assay: compound combined with individual growth factors or small molecules, no activin A (Example 5, Table 4); assay type: cell-based; conditions: agent combined with 2.5 μM compound and Wnt3a
# Method: Clusters of H1 human embryonic stem cells were grown on reduced growth factor […]™ (Invitrogen; Cat #356231)-coated tissue culture plastic. Cells were passaged using collagenase (Invitrogen; Cat #Cat #17104-019) treatment and gentle scraping, washed to remove residual enzyme, and plated with even dispersal at a ratio of 1:1 (surface area) on reduced growth factor […]™-coated 96-well black plates (Packard ViewPlates; PerkinElmer; Cat #6005182) using volumes of 100 μl/well. Cells were allowed to attach as clusters and then recover log phase growth over a 1 to 3 day period, feeding daily with MEF conditioned medium supplemented with 8 ng/ml bFGF (R&D Systems; Cat #233-FB). Plates were maintained at 37° C., 5% CO2 in a humidified box throughout the duration of assay.
# Other agents tested were purchased as follows: BMP-7 (Sigma; Cat #B1434), LY294002 (Cayman; Cat 70920), PD98059, U0126, U0124 (EMD Biosciences; Cat #453710), muscimol (Tocris; Cat #0289), biuculline (Tocris; Cat #0130), sodium butyrate (Sigma; Cat #B5887). All growth factors were solubilized in PBS with 0.1% BSA (Sigma; Cat #A7888) and stored frozen at −80° C. Small molecules were solubilized in 100% DMSO (Sigma; Cat #D2650) and stored frozen at −80° C. The compounds were available as 5 mM stocks in 96-well plate format, solubilized in 100% DMSO and stored at −80° C. […]
# [2] = tested on: H1 human embryonic stem cells; experiment: Definitive endoderm formation with TGF superfamily members, SOX17 and cell number (Example 14); assay type: cell-based; conditions: dose titration with Wnt3a, Compound 34, or both
# Method: Stock cultures of human embryonic stem cells (H1 human embryonic stem cell line) were maintained in an undifferentiated, pluripotent state on reduced growth factor MATRIGEL™-(BD Biosciences; Cat #356231)-coated dishes in MEF conditioned medium with passage on average every four days. Passage was performed by exposing cell cultures to a solution of 1 mg/ml dispase (Invitrogen; Cat #17105-041) for 5 to 7 minutes at 37° C. followed by rinsing the monolayer with MEF conditioned culture medium and gentle scraping to recover cell clusters. Clusters were centrifuged at low speed to collect a cell pellet and remove residual dispase. Cell clusters were split at a 1:3 or 1:4 ratio for routine maintenance culture or a 1:1 ratio for immediate assay. All human embryonic stem cell lines were maintained at passage numbers less than 50 and routinely evaluated for normal karyotype and absence of mycoplasma.
# Cell clusters were evenly resuspended in MEF conditioned medium supplemented with 8 ng/ml bFGF and seeded onto reduced growth factor MATRIGEL™-coated 96-well Packard VIEWPLATES (PerkinElmer; Cat #6005182) in volumes of 0.1 ml/well. Daily feeding was conducted by aspirating spent culture medium from each well and replacing with an equal volume of fresh medium. Plates were maintained at 37° C., 5% CO2 throughout assay. […]
molecule,measurement,setting,value
B1,effect on SOX17 expression,[1],inhibited or had negligible effects on SOX17 expression
same,cell numbers at the conclusion of assay,[2],significant effect on cell numbers
same,induction of SOX17 expression compared to the Wnt3a treatment alone,[2],weak or negligible

# Source: patent US9593305B2, “Differentiation of pluripotent stem cells” (Janssen Biotech, Inc., priority 2008, dated 2017)
